Patent US10456394B2, “Tetrahydroquinoline substituted hydroxamic acids as selective histone deacetylase 6 inhibitors” (THE BOARD OF TRUSTEES OF THE UNIVERSITY OF ILLINOIS, priority 2016, dated 2019)

Protein sequences, listed by entry. Tags and fused reporters are not part of them. Lines headed by an entry give the natural chain unless they say otherwise; changes in a name come on top.
UniProt P56524: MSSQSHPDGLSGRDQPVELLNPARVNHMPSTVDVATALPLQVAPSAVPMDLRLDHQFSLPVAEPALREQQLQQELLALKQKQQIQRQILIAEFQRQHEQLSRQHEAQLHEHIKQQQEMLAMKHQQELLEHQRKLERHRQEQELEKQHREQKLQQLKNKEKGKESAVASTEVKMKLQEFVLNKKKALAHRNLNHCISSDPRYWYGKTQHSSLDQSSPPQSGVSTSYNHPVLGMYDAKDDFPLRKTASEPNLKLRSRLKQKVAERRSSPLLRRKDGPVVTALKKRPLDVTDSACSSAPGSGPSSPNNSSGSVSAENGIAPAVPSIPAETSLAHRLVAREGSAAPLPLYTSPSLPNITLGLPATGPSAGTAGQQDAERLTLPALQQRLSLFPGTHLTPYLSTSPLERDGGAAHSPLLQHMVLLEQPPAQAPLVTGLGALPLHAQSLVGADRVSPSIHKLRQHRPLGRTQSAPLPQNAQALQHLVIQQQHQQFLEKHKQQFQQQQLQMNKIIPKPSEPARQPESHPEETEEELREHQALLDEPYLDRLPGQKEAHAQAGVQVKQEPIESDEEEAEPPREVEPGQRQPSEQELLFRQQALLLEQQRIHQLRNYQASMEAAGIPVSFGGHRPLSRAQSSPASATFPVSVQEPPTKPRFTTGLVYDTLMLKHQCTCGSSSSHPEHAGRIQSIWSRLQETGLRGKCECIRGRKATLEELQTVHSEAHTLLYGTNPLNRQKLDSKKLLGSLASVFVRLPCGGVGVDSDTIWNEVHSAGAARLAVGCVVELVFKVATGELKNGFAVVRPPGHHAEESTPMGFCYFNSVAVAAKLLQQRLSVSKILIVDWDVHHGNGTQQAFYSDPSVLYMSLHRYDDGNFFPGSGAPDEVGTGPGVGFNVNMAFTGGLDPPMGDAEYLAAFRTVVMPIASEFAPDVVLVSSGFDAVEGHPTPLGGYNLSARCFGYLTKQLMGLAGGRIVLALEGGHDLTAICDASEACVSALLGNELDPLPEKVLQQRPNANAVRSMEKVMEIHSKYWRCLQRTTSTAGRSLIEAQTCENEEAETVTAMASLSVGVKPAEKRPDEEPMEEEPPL

Biological target: HDAC4 (Homo sapiens (Human), UniProt P56524)
Test: HDAC enzyme activity inhibition assay, HDAC4
Type: biochemical
Conditions: Table 2; mean of two experiments

- IC50: 3670 nM
Structure (SMILES): CN1CCc2c(c3ccccc3n2Cc2ccc(C(=O)NO)cc2)C1 [Tubastatin A HCl, reference compound]

Structures can show the parent of a compound that is named as a salt.
